Source: patent US12329158B2, “Large-scale methods of uniformly coating packaging surfaces with a volatile antimicrobial to preserve food freshness” (AGROFRESH INC., priority 2013, dated 2025)
Converted amounts (≈) assume the structure as drawn.

Experiments:
Type in all cases: cell-based
Botrytis cinerea [1] = assay: Volatile MIC assay (Example 9); conditions: 72 h, read-out: MIC (mg/L) BOTRCI
Description: (§1) A 3-mL volume of full-strength Potato Dextrose Agar (PDA) is added to each well. […] Plates are inoculated immediately prior to volatile fungicide treatment. A Whatman #1 filter disk (Cat. No. 1001-0155) is placed, in duplicate, on the underside of a polyethylene PCR plate sealing film. […] The acetone is permitted to evaporate for 5 minutes. The headspace around the inoculum is then sealed inside the well by the film with the adhering disk containing the fungicide by inverting the plates over the treated disks and sealing to prevent any of the chemical from flaking from the disk and falling onto the inoculated agar.

Glomerella cingulata [2] = assay: Volatile MIC assay (Example 9); conditions: Colletotrichum gloeosporioides, 72 h, read-out: MIC (mg/L) GLOMCI
Description: as §1

Monilinia fructicola = assay: Volatile MIC assay (Example 9); conditions: 72 h, read-out: MIC (mg/L) MONIFC
Description: as §1

Penicillium expansum [3] = assay: Volatile MIC assay (Example 9); conditions: 72 h, read-out: MIC (mg/L) PENIEX
Description: as §1

Botrytis cinerea [4] = assay: Volatile MIC assay (Example 11)
Penicillium expansum [5] = assay: Volatile MIC assay (Example 11)
Monilinia fruticola = assay: Volatile MIC assay (Example 11)
Alternaria alternata = assay: Volatile MIC assay (Example 11)
Glomerella cingulata [6] = assay: Volatile MIC assay (Example 11); conditions: Colletotrichum gloeosporioides
Penicillium digitatum = assay: Volatile MIC assay (Example 11)
Aspergillus brasiliensis = assay: Volatile MIC assay (Example 11)
Colletotrichum acutatum = assay: Volatile MIC assay (Example 11)
Fusarium sambucinum = assay: Volatile MIC assay (Example 11)
Geotrichum candidum = assay: Volatile MIC assay (Example 11)
Aspergillus niger = assay: Volatile MIC assay (Example 11)
M. piriformis = assay: Volatile MIC assay (Example 11); conditions: Mucor piriformis
Diplodia gossypina = assay: Volatile MIC assay (Example 11); conditions: Lasiodiplodia theobromae
B. cinerea = assay: In vitro contact assay, amended agar (Example 24); conditions: Botrytis cinerea, 72 h, read-out: Contact MIC (mg/L) B. cinerea
Description: (§2) Contact assay: 6-well (16.5 mL volume per well) microtiter plates are used for an in vitro inhibition assay. […] A 7.5-mL volume of the amended media is added to each well of the microtiter plate. […] The plates are sealed with a clear film and incubated for 3 days at 23° C. After incubation, plates are evaluate for percent growth relative to acetone only control.

P. expansum = assay: In vitro contact assay, amended agar (Example 24); conditions: Penicillium expansum, 72 h, read-out: Contact MIC (mg/L) P. expansum
Description: as §2

Botrytis cinerea [7] = assay: In vitro volatile assay (Example 24); conditions: 72 h, read-out: Volatile MIC (mg/L) B. cinerea
Description: (§3) Volatile assay: 12-well (6.5 mL volume per well) microtiter plates are used. A 3-mL volume of half strength PDA is added to each well. […] A Whatman #1 filter disk (Cat. No. 1001-0155) is placed, in duplicate, on the underside of a polyethylene PCR plate sealing film. […] The acetone is permitted to evaporate for 5 minutes. The headspace around the inoculum is then sealed inside the well by the film with the adhering disk containing the fungicide. Plates are inverted, placed over the treated disks, and sealed to prevent any of the chemical from flaking from the disk and falling onto the inoculated agar. […] Contact assay: 6-well (16.5 mL volume per well) microtiter plates are used for an in vitro inhibition assay. […] A 7.5-mL volume of the amended media is added to each well of the microtiter plate. […] The plates are sealed with a clear film and incubated for 3 days at 23° C. After incubation, plates are evaluate for percent growth relative to acetone only control.

Penicillium expansum [8] = assay: In vitro volatile assay (Example 24); conditions: 72 h, read-out: Volatile MIC (mg/L) P. expansum
Description: as §3

For OB1OCc2ccccc21 [Compound B2, 2-(hydroxymethyl)phenylboronic acid cyclic monoester], the MIC (Botrytis cinerea [1]) was 4.5 mg/L (≈ 33.6 µM), the MIC (Glomerella cingulata [2]) was 35.7 mg/L (≈ 267 µM) and the MIC (Monilinia fructicola) was 2.2 mg/L (≈ 16.4 µM). It also gave an MIC (Penicillium expansum [3]) of 17.9 mg/L (≈ 134 µM), an MIC (Botrytis cinerea [4]) of 4.5 µg/mL (≈ 33.6 µM) and an MIC (Penicillium expansum [5]) of 8.9 µg/mL (≈ 66.4 µM). For the same compound, the MIC (Monilinia fruticola) was 1.1 µg/mL (≈ 8.21 µM), the MIC (Alternaria alternata) was 2.2 µg/mL (≈ 16.4 µM) and the MIC (Glomerella cingulata [6]) was 35.7 µg/mL (≈ 267 µM). The MIC (Penicillium digitatum) was 4.5 µg/mL (≈ 33.6 µM), the MIC (Aspergillus brasiliensis) was 0.6 µg/mL (≈ 4.48 µM) and the MIC (Colletotrichum acutatum) was 8.9 µg/mL (≈ 66.4 µM). The MIC (Fusarium sambucinum) was 4.5 µg/mL (≈ 33.6 µM), the MIC (Geotrichum candidum) was 8.9 µg/mL (≈ 66.4 µM) and the MIC (Aspergillus niger) was 1.1 µg/mL (≈ 8.21 µM). The MIC (M. piriformis) was 2.2 µg/mL (≈ 16.4 µM), the MIC (Diplodia gossypina) was 4.5 µg/mL (≈ 33.6 µM) and the MIC (B. cinerea) was 10 mg/L (≈ 74.7 µM). It also gave an MIC (P. expansum) of 2 mg/L (≈ 14.9 µM), an MIC (Botrytis cinerea [7]) of 4.5 mg/L (≈ 33.6 µM) and an MIC (Penicillium expansum [8]) of 17.9 mg/L (≈ 134 µM).
